Measurements as given in patent US10660932B2, “Drug combinations and methods to stimulate embryonic-like regeneration to treat diabetes and other diseases” (UNIVERSITY OF SOUTHERN CALIFORNIA, priority 2016, dated 2020).

Test system: STZ-treated mice

Compound: CN(N=O)C(=O)N[C@H]1C(O)O[C@H](CO)[C@@H](O)[C@@H]1O (mixture of isomers) [STZ, streptozotocin]
- blood glucose (hyperglycemia) (5 days after STZ treatment (STZ BL)): > 300 mg/dL
- depletion of insulin-secreting β cells (STZ 150 mg/kg, STZ BL (day 5)): about 85%
- blood glucose (STZ-treated mice receiving the AL diet, days 30 and 50): above 450 mg/dl
